The record followed here is patent US20170190774A1.

The experiment addresses human FSH receptor expressed on HEK 293 cells (human) (UniProt P23945). Description: cell-based or functional assay.

“ovine FSH (oFSH) (from UniProt P01218 25-120; P01227 20-129) (ligand)” had an EC50 of oFSH alone, cAMP (GloSensor), HEK 293 cells with the human FSH receptor of 2.36 nM.
